Molecular target: Dpp4 (Mus musculus, UniProt P28843)

Chains of the proteins cited; added tags and fusions are not shown. Lines headed by an entry give the natural chain unless they say otherwise; changes in a name come on top.
UniProt P28843: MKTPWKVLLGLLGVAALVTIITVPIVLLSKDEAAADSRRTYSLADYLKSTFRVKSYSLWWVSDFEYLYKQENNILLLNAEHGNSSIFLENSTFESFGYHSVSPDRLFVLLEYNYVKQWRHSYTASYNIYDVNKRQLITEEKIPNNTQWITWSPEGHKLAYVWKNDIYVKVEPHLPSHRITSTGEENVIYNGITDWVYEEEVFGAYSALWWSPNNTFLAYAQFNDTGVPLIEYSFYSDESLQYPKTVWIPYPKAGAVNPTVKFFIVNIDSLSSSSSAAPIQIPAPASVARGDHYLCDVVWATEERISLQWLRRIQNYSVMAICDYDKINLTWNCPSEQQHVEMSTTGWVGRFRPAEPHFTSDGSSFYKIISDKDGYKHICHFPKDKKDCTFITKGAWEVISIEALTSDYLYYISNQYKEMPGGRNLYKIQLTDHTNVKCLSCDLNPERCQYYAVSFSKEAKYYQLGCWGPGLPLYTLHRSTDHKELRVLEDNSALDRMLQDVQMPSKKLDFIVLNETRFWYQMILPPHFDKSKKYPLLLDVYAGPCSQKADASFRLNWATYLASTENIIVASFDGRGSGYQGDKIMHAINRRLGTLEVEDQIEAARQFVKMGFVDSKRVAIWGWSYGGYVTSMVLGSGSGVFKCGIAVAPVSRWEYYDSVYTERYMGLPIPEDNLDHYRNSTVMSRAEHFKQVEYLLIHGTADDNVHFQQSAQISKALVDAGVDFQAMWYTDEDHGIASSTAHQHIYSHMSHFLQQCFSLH

## N[C@@H](CC(=O)N1CCn2c(nnc2C(F)(F)F)C1)Cc1cc(F)c(F)cc1F [Sitagliptin, Sitagliptin phosphate]
Lats1/2 CKO E14.5 hearts treated with Sitagliptin versus controls, Pecam-1 IF
  junction density: reduced
Lats1/2 CKO E14.5 hearts treated with Sitagliptin, Pecam-1
  blood islands, dorsal side of heart: lacked blood islands
Lats1/2 CKO E14.5 hearts, 0.01 mg/g by gavage to plugged female at E11.5, E12.5 and E13.5, compared with untreated Lats1/2 CKO
  disorganized coronary vessel phenotype (Pecam IF and automated quantification): partially suppressed

From patent publication US12268704B2, “Hippo regulation of cardiac vascularity, fibrosis, and inflammation” (Baylor College of Medicine, priority 2018, dated 2025)
